Data taken from patent US20250295776A1, “CLEAVAGE RESISTANT CD16 CONSTRUCTS AND USES THEREOF” (Celularity Inc., priority 2022, published 2025).

Tested on: NCI-N87 gastric cancer cell line
Experiment: In vivo efficacy in subcutaneous NCI-N87 gastric tumor model
Design: species or system NSG-Tg-hIL15 mice
Settings: CYNK-101 10×10^6 cells IV Days 7, 14, 21 or Trastuzumab 10 mg/kg IP Day 7
Procedure: The anti-tumor activity and safety of CYNK-101 in combination with Trastuzumab were evaluated in a subcutaneous gastric tumor model using the NSG mice with transgenic expression of human IL-15 (NSG-Tg-hIL15).
A total of eighty female NSG-Tg-hIL15 mice were preconditioned with busulfan (30 mg/kg) to deplete myeloid cells on Day −3. […] One week later (Day 7), seventy-three mice with palpable tumors were randomized to the following four groups: Vehicle control (n=19), Trastuzumab (n=17), CYNK-101 (n=19), CYNK-101+Trastuzumab (n=18). Trastuzumab (10 mg/kg) was administered intraperitonially (IP) once on Day 7, and CYNK-101 at the dose of 10×10^6 cells/mouse was administered intravenously (IV) three times on Days 7, 14 and 21.

**Q.** Trastuzumab: anti-HER2 antibody was tested. Which “tumor growth, single agent vs vehicle control” value did it give?
**A.** significantly inhibited tumor growth
